The values that follow come from patent US20110110945A1, “Immunoglobulin Fusion Proteins and Methods of Making” (TransTech Pharma, Inc., priority 2007, published 2011).

Where two headings read alike, the source gives them in different places. Marks after values point to notes of the source that are not given here.

The subject of data set [1] is male C57BL/6 mice, cerebral ischemia/reperfusion. The data set is described as follows: Animal model of stroke (ischemia and reperfusion, infarct volume). The data set is classed as in vivo, mouse. As to conditions: dose not given; just prior to reperfusion; compared to saline. The procedure:
Also, fusion proteins of the present invention comprising a RAGE ligand binding site may be used to treat atherosclerosis and other cardiovascular disorders such as stroke. […] In this model, the middle carotid artery of a mouse is ligated and then reperfused to form an infarct. To assess the efficacy of RAGE fusion proteins to treat or prevent stroke, mice were treated with sRAGE or TTP-4000 or control immunoglobulin just prior to reperfusion.
TTP-4000 was also compared to sRAGE in a disease relevant animal model of stroke. In this model, the middle carotid artery of a mouse was ligated for 1 hour followed by 23 hours of reperfusion at which point the mice were sacrificed and the area of the infarct in the brain was assessed. […]
Mice were injected intraperitoneally, 1 hour after the initiation of ischemia. […] After the nylon suture had been in place for 1 hour, the animal was re-anesthetized, rectal temperature was recorded and the suture was removed and the incision closed.
Infarct volume was determined by anesthetizing the animals with an intraperitoneal injection of sodium pentobarbital (50 mg/kg) and then removing the brains. […] The infarct area in each section was determined with a computer-assisted image analysis system, consisting of a Power Macintosh computer equipped with a Quick Capture frame grabber card, Hitachi CCD camera mounted on a camera stand. […]

For data set [2] the following is noted: cited from earlier work; for half-life in plasma: plasma (human plasma).

For “sRAGE: soluble RAGE: N-terminal extracellular domain of RAGE comprised of the V and C domains”, the “% Reduction of Infarct” value in data set [1] came to 15%*. Besides, the half-life entry in data set [2] (assessed by retention of immunoreactivity sRAGE) is given as “less than 2 hours”. Further, the half-life in plasma result in data set [2] is “only a few hours”; in data set [2] (listed as human sRAGE) it was “about 2 hours”.
